Experimental data published in patent US9694016B2.

By UniProt entry, the sequences of proteins in these tests, tags left out.
UniProt P15056, whole entry V600E: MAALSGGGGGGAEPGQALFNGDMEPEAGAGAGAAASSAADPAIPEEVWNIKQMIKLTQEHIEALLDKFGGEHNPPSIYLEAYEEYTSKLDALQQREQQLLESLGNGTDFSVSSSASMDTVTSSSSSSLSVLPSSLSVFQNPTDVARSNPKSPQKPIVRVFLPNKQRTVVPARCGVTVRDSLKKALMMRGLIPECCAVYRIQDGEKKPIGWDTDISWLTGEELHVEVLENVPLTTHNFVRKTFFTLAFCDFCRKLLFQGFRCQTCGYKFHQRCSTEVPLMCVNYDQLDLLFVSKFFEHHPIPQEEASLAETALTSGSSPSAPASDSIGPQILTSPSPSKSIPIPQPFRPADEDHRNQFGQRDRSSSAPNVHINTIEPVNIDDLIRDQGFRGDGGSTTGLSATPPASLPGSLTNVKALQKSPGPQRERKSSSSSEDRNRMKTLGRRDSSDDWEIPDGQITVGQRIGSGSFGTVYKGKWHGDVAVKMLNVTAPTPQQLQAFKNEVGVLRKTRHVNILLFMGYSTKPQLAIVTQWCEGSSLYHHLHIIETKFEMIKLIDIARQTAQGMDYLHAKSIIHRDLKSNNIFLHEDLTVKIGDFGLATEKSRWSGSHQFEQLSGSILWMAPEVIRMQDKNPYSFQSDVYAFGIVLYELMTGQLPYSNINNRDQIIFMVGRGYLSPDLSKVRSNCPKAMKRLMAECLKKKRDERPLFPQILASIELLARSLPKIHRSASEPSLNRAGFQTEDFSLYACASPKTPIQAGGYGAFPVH

Biological target: b-Raf (V600E) (Homo sapiens (Human), UniProt P15056, V600E)
Settings: tested form: TFA

Cc1ccc(NC(=O)c2cccc(S(C)(=O)=O)c2)cc1-c1cc2[nH]cnc2c(N2CCOCC2)n1
IC50: 2.7 nM
